Reference: patent US10266526B2, “Substituted 1,2,3-triazoles as SMYD inhibitors for treating cancer” (EPIZYME, INC., priority 2014, dated 2019)

Protein sequences, listed by entry. Tags and fused reporters are not part of them. Lines headed by an entry give the natural chain unless they say otherwise; changes in a name come on top.
UniProt Q9H7B4: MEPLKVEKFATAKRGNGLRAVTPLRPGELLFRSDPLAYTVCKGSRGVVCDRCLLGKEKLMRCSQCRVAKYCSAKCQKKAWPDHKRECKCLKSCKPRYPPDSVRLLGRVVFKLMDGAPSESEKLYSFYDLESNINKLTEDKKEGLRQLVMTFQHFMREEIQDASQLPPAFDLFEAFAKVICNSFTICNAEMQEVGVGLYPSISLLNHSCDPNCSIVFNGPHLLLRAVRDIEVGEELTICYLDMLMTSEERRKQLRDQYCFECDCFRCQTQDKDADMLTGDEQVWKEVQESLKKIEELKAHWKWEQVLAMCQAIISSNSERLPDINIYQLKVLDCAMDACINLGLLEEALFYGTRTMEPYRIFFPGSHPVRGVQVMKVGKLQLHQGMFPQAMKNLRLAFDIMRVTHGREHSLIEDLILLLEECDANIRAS
UniProt Q9NRG4: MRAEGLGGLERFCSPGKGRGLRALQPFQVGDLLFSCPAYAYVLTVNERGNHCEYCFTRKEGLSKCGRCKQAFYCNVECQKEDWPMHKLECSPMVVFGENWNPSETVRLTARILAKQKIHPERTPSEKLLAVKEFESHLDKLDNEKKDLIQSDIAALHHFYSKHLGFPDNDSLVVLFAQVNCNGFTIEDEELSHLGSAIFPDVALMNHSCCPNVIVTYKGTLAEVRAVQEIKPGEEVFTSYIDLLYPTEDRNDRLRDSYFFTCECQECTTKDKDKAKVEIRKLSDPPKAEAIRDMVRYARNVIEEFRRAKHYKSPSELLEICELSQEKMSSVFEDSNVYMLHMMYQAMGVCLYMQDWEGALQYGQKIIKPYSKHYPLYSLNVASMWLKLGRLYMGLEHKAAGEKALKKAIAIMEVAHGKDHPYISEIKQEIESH

The compounds below were run against T1, SMYD3 (Homo sapiens (Human), UniProt Q9H7B4) (assay: SMYD3 biochemical assay (SMYD3 enzyme assay on MEKK2 protein substrate, 3H-SAM scintillation proximity assay)). Details: read-out: SMYD3 Biochem IC50.
Description: S-adenosylmethionine (SAM), S-adenosylhomocysteine (SAH), Tris, Tween20, dimethylsulfoxide (DMSO), bovine skin gelatin (BSG), and Tris(2-carboxyethyl)phosphine hydrochloride solution (TCEP) were purchased from Sigma-Aldrich at the highest level of purity possible. ^3H-SAM was purchase from American Radiolabeled Chemicals with a specific activity of 80 Ci/mmol. 384-well opaque white OptiPlates and SPA beads (Perkin Elmer, catalog # RPNQ0013) were purchased from PerkinElmer.
N-terminally GST-tagged MEKK2 (MAP3K2) protein corresponding to reference sequence AAF63496.3 was purchased from Life Technologies (catalog # PV4010). This protein was expressed in High Five insect cells and purified to >85% purity. Protein identity was confirmed by MS/MS analysis after proteolytic digestion. The protein sequence used was:
Full-length human SMYD3 isoform 1 (BAB86333) was inserted into a modified pET21b plasmid containing a His6 tag and TEV and SUMO cleavage sites. […]
The assays were all performed in a buffer consisting of 25 mM Tris-Cl pH 8.0, 1 mM TCEP, 0.005% BSG, and 0.005% Tween 20, prepared on the day of use. […] Radiolabeled MEKK2 was detected using a scintillation proximity assay (SPA). […]
In the case of `NCCC(=O)N[C@H]1CC[C@H](NC(=O)c2cccc3c2NC(=O)C3)CC1` [compound 505, N-((1r,4r)-4-(3-aminopropanamido)cyclohexyl)-2-oxoindoline-7-carboxamide], the IC50 is reported as 16100 nM.

These compounds were tested against SMYD2 (Homo sapiens (Human), UniProt Q9NRG4) (assay: SMYD2 biochemical assay (SMYD2 enzyme assay on peptide substrate, 3H-SAM Flashplate)). Details: SMYD2 Biochem IC50, IC50 values are an average of n = 1 to n = 50.
Work on `COc1ccccc1[C@H](C)N1CC(NC(=O)c2cn(C3CC3)nn2)C1` (single isomer, unassigned) [compound 780] yielded an IC50 of 347 nM.

Same assay, conditions: read-out: SMYD2 Biochem IC50; IC50 values are an average of n = 1 to n = 50
`CCC(c1ccccc1)N1CC(NC(=O)c2cn(C3CC3)nn2)C1` (centres unmarked) [compound 675, 1-cyclopropyl-N-[1-(1-phenylpropyl)azetidin-3-yl]-1H-1,2,3-triazole-4-carboxamide] gave an IC50 of 494 nM. `O=C(NC1CN(Cc2cncn2CCc2ccccc2)C1)c1cn(C2CC2)nn1` [compound 810, 1-cyclopropyl-N-(1-{[1-(2-phenylethyl)-1H-imidazol-5-yl]methyl}azetidin-3-yl)-1H-1,2,3-triazole-4-carboxamide] gave an IC50 of 9290 nM. `COc1cccc(C(C)N2CC(NC(=O)c3cn(C4CC4)nn3)C2)c1OC` (centres unmarked) [compound 763, 1-cyclopropyl-N-{1-[1-(2,3-dimethoxyphenyl)ethyl]azetidin-3-yl}-1H-1,2,3-triazole-4-carboxamide] showed an IC50 of 88.5 nM. Work on `COc1ccc2c(c1OC)CCC2N1CC(NC(=O)c2cn(C3CC3)nn2)C1` (centres unmarked) [compound 744, 1-cyclopropyl-N-[1-(4,5-dimethoxy-2,3-dihydro-1H-inden-1-yl)azetidin-3-yl]-1H-1,2,3-triazole-4-carboxamide] yielded an IC50 of 23700 nM. `COCC(c1ccccc1)N1CC(NC(=O)c2cn(C3CC3)nn2)C1` (centres unmarked) [compound 752, 1-cyclopropyl-N-[1-(2-methoxy-1-phenylethyl)azetidin-3-yl]-1H-1,2,3-triazole-4-carboxamide] was tested, and the IC50 was 6090 nM. `CC(c1ccc(OCc2cccc(Cl)c2)cc1)N1CC(NC(=O)c2cn(C3CC3)nn2)C1` (centres unmarked) [compound 847, N-[1-(1-{4-[(3-chlorophenyl)methoxy]phenyl}ethyl)azetidin-3-yl]-1-cyclopropyl-1H-1,2,3-triazole-4-carboxamide] showed an IC50 of 274 nM. Work on `COc1ccccc1C(C)N1CC(NC(=O)c2cn(C3CC3)nn2)C1` (centres unmarked) [compound 683, 1-cyclopropyl-N-{1-[1-(2-methoxyphenyl)ethyl]azetidin-3-yl}-1H-1,2,3-triazole-4-carboxamide] yielded an IC50 of 797 nM. Work on `CC(C)N1CC(NC(=O)c2ncc(C3CC3)[nH]2)C1` [compound 913, 5-cyclopropyl-N-[1-(propan-2-yl)azetidin-3-yl]-1H-imidazole-2-carboxamide] yielded an IC50 of 1700 nM. In the case of `CC[C@@H](c1ccccc1)N1CC(NC(=O)c2cn(C3CC3)nn2)C1` [compound 722, 1-cyclopropyl-N-{1-[(1S)-1-phenylpropyl]azetidin-3-yl}-1H-1,2,3-triazole-4-carboxamide], the IC50 is reported as 198 nM. For `CC(c1cc(Cl)ccc1Cl)N1CC(NC(=O)c2cn(C3CC3)nn2)C1` (centres unmarked) [compound 697, 1-cyclopropyl-N-{1-[1-(2,5-dichlorophenyl)ethyl]azetidin-3-yl}-1H-1,2,3-triazole-4-carboxamide], the IC50 was 189 nM. For `CC(c1ccc(OCC(=O)N2CCCCC2)cc1)N1CC(NC(=O)c2cn(C3CC3)nn2)C1` (centres unmarked) [compound 844, 1-cyclopropyl-N-[1-(1-{4-[2-oxo-2-(piperidin-1-yl)ethoxy]phenyl}ethyl)azetidin-3-yl]-1H-1,2,3-triazole-4-carboxamide], the IC50 was 1550 nM.

These compounds were tested against T1, SMYD3 (assay: SMYD3 cell assay (Trimethyl-MEKK2 In-Cell Western in 293T/17 cells transfected with MEKK2-flag and SMYD3)). Details: Table 3A; average of n = 1 to n = 50.
Format: cell-based
Description: Trimethyl-MEKK2-in-Cell Western Assay
MEM/Glutamax medium, Optimem Reduced Serum medium, penicillin-streptomycin, 0.05% trypsin and 1×D-PBS were purchased from Life Technologies, Grand Island, N.Y., USA. PBS-10× was purchased from Ambion, Life Technologies, Grand Island, N.Y., USA. PBS with Tween 20 (PBST (10×)) was purchased from KPL, Gaithersburg, Md., USA. Tet System FBS-approved FBS US Source was purchased from Clontech, Mountain View, Calif., USA. Odyssey blocking buffer, 800CW goat anti-rabbit IgG (H+L) antibody, 680CW Goat anti-mouse IgG (H+L) and Licor Odyssey infrared scanner were purchased from Licor Biosciences, Lincoln, Nebr., USA. […]
Plasmids were prepared for delivery to cells by first mixing 1350 μL Opti-MEM with Fugene (81 μL) in a sterile Eppendorf and incubated for five minutes at room temperature (RT). […] Room temperature MEM+10% Tet system FBS was added and cells were mixed gently, and counted using the Vi-cell. […]
First, the ratio for each well was determined by:
Each plate included fourteen control wells of DMSO only treatment (Minimum Inhibition) as well as fourteen control wells for maximum inhibition (Background). The average of the ratio values for each control type was calculated and used to determine the percent inhibition for each test well in the plate. […] Percent inhibition was calculated (below). […]
With `C[C@H]1C[C@@H](NC(=O)c2ccc3c(c2)CC(=O)N3)CCN1C(=O)[C@H]1CC[C@H](N)CC1` [compound 642, N-((2S,4S)-1-((1r,4S)-4-aminocyclohexane-1-carbonyl)-2-methylpiperidin-4-yl)-2-oxoindoline-5-carboxamide] the IC50 was ≥ 10000 nM.
